# The list shows a part of the results, in another mix than the full data. The source made the active and inactive calls.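 The calls were made as follows: active = tissue-nonspecific alkaline phosphatase inhibition above about 50% at 20 µM in the single-dose screen (limit read from the data); inactive = the rest.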
# Amino acid sequences for entries named in this document (tags omitted). A change or cut given only in a name is not applied to a line headed by its entry.
# UniProt P05186: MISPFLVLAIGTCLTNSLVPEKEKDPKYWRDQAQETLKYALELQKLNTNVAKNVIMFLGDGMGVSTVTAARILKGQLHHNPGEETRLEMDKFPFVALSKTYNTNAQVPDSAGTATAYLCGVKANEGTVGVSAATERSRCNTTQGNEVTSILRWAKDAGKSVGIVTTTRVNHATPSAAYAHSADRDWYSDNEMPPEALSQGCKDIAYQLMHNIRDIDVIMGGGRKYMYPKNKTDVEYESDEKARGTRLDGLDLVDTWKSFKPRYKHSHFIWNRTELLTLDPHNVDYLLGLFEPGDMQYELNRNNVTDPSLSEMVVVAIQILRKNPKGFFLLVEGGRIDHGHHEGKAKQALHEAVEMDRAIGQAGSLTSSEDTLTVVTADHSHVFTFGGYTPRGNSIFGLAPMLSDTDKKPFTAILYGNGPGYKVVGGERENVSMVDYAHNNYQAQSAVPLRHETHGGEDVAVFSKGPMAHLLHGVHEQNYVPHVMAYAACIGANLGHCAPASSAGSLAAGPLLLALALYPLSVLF
# Target: Alkaline phosphatase, tissue-nonspecific isozyme (Homo sapiens) (UniProt P05186)
# Experiment: human TNAP enzyme inhibitors, primary screen, biochemical, luminescent, no phosphate acceptor, uHTS (AID 1012);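 also: 0% = DMSO negative control and 100% = EDTA positive control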
# Details: purified TNAP, CDP-star luminescence, 30 min; at 20 µM; active compounds read high
row,SMILES,inhibition
1,Clc1ccc(Cl)c(NC2=NCC(CBr)S2)c1 (centres undefined),inactive: -25.1%
2,CN1CCCC(OC(=O)C(c2ccccc2)c2ccccc2)C1 (centres undefined),inactive: -7.4%
3,COc1ccccc1OP(=O)(Nc1ccc(C)cn1)Oc1ccccc1OC,inactive: -9.7%
4,Cc1ccc(N/C(=N/P(=O)(N2CCOCC2)N2CCOCC2)N2CCOCC2)cc1,inactive: -10.7%
5,NC(=O)c1cc([N+](=O)[O-])cc([N+](=O)[O-])c1N,inactive: -1.4%
6,Cc1c2non([O-])c-2c(C)[n+](=O)[n+]1[O-],inactive: 2.3%
7,O=C(NC(Sc1ccncn1)C(Cl)(Cl)Cl)c1ccccc1 (centres undefined),inactive: -21.7%
8,Oc1ccccc1CNc1ccccn1,inactive: -13%
9,CC(C)CC(=O)NC(Sc1ccc(Cl)cc1)C(Cl)(Cl)Cl (centres undefined),inactive: 7%
10,CCOP(=O)(Nc1ccccc1)OCC,inactive: -2.3%
11,Cc1cc(SC(NC(=O)c2ccc(F)cc2)C(Cl)(Cl)Cl)ncn1 (centres undefined),inactive: -2%
12,CCN(N=Nc1nonc1N)c1nonc1N,inactive: -4%
13,O=[N+]([O-])c1ncn(CCn2ncnc2[N+](=O)[O-])n1,inactive: -6.3%
14,CCc1nc2c(n1)c1c(non1O)c1c2no[n+]1[O-],inactive: -14.2%
15,O=[N+]([O-])c1cc([N+](=O)[O-])c(CCNc2ccccc2)c([N+](=O)[O-])c1,inactive: 0.2%
16,Cc1ccc(NP(=O)(Oc2ccccc2)Oc2ccccc2)nc1,inactive: -1.7%
17,O=[N+]([O-])c1cccc2n[nH]nc12,inactive: -13.9%
18,CC(=O)N1C2C3N(C(C)=O)C1C1N(C(C)=O)C(C(N1C(C)=O)N3C(C)=O)N2C(C)=O,inactive: -4.1%
19,COc1ccc(C2=NCC(CBr)S2)cc1 (centres undefined),inactive: -4%
20,CC1CCN(C(=O)Oc2c(Cl)cc(Cl)c3cccnc23)CC1,inactive: -3.7%
21,CN(C)C(=O)OCCc1n(C)cc[n+]1C,inactive: -9.1%
22,CC(C)=N/N=C(\N)N[N+](=O)[O-],inactive: -7.1%
23,CCN(/C(=N/P(=O)(N1CCOCC1)N1CCOCC1)N1CCOCC1)c1ccc(OC)cc1,inactive: -10%
24,c1nnnn1CCn1cnnn1,inactive: -12.4%
25,CC(C)C(=O)NC(Sc1ccccc1)C(Cl)(Cl)Cl (centres undefined),inactive: 3.7%
26,O=P(Nc1nccs1)(c1ccccc1)c1ccccc1,inactive: -6.4%
27,O=P(Nc1ccccn1)(c1ccc(Br)cc1)c1ccc(Br)cc1,inactive: -1.4%

row,SMILES,inhibition
1,O=C(OC1CN2CCC1CC2)c1cccc(Cl)c1 (centres undefined),inactive: -6.3%
2,C(Cc1nn[nH]n1)Cc1nn[nH]n1,inactive: -8.9%
3,CC(=O)NC(SC(=S)N(C)C)C(Cl)(Cl)Cl (centres undefined),inactive: -0.8%
4,CCOC(=O)NC(Sc1ccccc1)C(Cl)(Cl)Cl (centres undefined),inactive: -1.3%
5,c1ccc(-c2nn[nH]n2)c(-c2nn[nH]n2)c1,inactive: -1.9%
6,CCNC(=S)/N=C(\N)N[N+](=O)[O-],inactive: -6.4%
7,O=C(NC1CCS(=O)(=O)C1)NP(=S)(Oc1ccccc1)Oc1ccccc1 (centres undefined),inactive: -16.4%
8,O=c1c2cc([N+](=O)[O-])ccc2[nH]c2c([N+](=O)[O-])cc([N+](=O)[O-])cc12,inactive: 33%
9,CCC(=O)N1C2C3N(C(=O)CC)C1C1N(C(=O)CC)C(C(N1C(=O)CC)N3C(=O)CC)N2C(=O)CC,inactive: -1.6%
10,Cc1ccc(OP(=O)(Nc2ccccn2)Oc2ccc(C)cc2)cc1,inactive: -5.6%
11,CC(=O)NC(SC(=S)N(CC(C)C)CC(C)C)C(Cl)(Cl)Cl (centres undefined),inactive: 6.6%
12,COC(=O)c1cc2c(s1)N=C(c1ccccc1)N(C)P2(=O)N1CCOCC1 (centres undefined),inactive: -9.9%
13,CC(C)(C)C(=O)NC(Sc1ccccc1)C(Cl)(Cl)Cl (centres undefined),inactive: -3.4%
14,CCOc1ccc(C2=NCC(CBr)S2)cc1 (centres undefined),inactive: -7.4%
15,O=P1(Nc2nc3ccc(Cl)cc3s2)COc2ccccc2O1 (centres undefined),inactive: -8.2%
16,CC(=O)Nc1ccc(Oc2c([N+](=O)[O-])cc([N+](=O)[O-])cc2[N+](=O)[O-])cc1,inactive: 4.8%
17,Cc1cccc(OCC(=O)OC2CN3CCC2CC3)c1 (centres undefined),inactive: -13.1%
18,COc1cc(C(=O)NCC2(N3CCOCC3)CCCCC2)cc(Cl)c1OC(C)C,inactive: -14.7%
19,CCOP(=O)(Nc1cccc2ccccc12)OCC,inactive: -3.8%
20,COc1cc(C2NCCC3(OCCO3)C2(C)C)cc(OC)c1OC (centres undefined),inactive: -17.2%
21,Cc1ccc(NCCc2c([N+](=O)[O-])cc([N+](=O)[O-])cc2[N+](=O)[O-])cc1,inactive: -0.2%
22,O=P(Nc1nccs1)(c1ccccc1)c1nc2ccccc2s1 (centres undefined),inactive: -5.3%
23,O=P(Nc1nccs1)(Oc1ccccc1)Oc1ccccc1,inactive: -4.5%
24,CCOP1(=S)c2c(C)nn(CCC#N)c2N=C(c2ccccc2F)N1C (centres undefined),inactive: -8.4%
25,CCOP1(=S)c2c(C)nn(CCC#N)c2N=C(c2ccc(F)cc2)N1C (centres undefined),inactive: -7.8%
26,O=[N+]([O-])c1ccc2c(c1)nnn2O,inactive: -9.8%
27,CN(C)C1(CNC(=O)c2ccc(S(C)(=O)=O)cc2)CCCCC1,inactive: -9.9%

row,SMILES,inhibition
1,CC1CCC(C(C)C)C(OP(=O)(Nc2ccccn2)c2ccccc2)C1 (centres undefined),inactive: -16.5%
2,Cc1nn(-c2ccccc2)c2c1P(=O)(N1CCOCC1)N(C)C(c1ccccc1)=N2 (centres undefined),inactive: -12%
3,O=P1(Nc2ccc(Br)cn2)COc2ccccc2OC1,inactive: -5.1%
4,Cc1ccc(OCC(=O)OC2CN3CCC2CC3)cc1 (centres undefined),inactive: -5.5%
5,O=P1(Nc2ncccn2)COc2ccccc2OC1,inactive: 9%
6,Clc1n[nH]nc1-c1nn[nH][15n]1,inactive: -7.8%
7,O=P1(Nc2ccccn2)COc2ccccc2OC1,inactive: -4.7%
8,CC(C)/C=N\N=C(\N)N[N+](=O)[O-],inactive: -2.4%
9,CN(C(=O)Cc1ccc(Cl)c(Cl)c1)[C@@H]1CCCC[C@H]1N1CCCC1,inactive: -11.9%
10,O=C(COc1ccccc1)OC1CN2CCC1CC2 (centres undefined),inactive: -6.1%
11,COP1(=S)c2c(C)nn(CCC#N)c2N=C(c2ccc(F)cc2)N1C (centres undefined),inactive: -3.7%
12,CCC(C)N(CC(C)C)C(=S)SC(NC(C)=O)C(Cl)(Cl)Cl (centres undefined),inactive: 10.3%
13,Cc1cc(SC(NC(=O)c2ccccc2)C(Cl)(Cl)Cl)nc(C(C)C)n1 (centres undefined),inactive: -30%
14,O=P(Nc1ccccn1)(c1cccc2ccccc12)c1cccc2ccccc12,inactive: -5.1%
15,Cc1cc(SC(NC=O)C(Cl)(Cl)Cl)ncn1 (centres undefined),inactive: -2.6%
16,Cc1ccc2nc3c(c(C)c2c1)CC(C(Cl)Cl)S3 (centres undefined),inactive: -10.7%
17,O=[N+]([O-])c1cc([N+](=O)[O-])c(-c2ccn[nH]2)s1,inactive: 6.3%
18,CCN(CC)C(=S)SC(NC=O)C(Cl)(Cl)Cl (centres undefined),inactive: -6.4%
19,CC(C)NC(=O)NP(=O)(Oc1ccccc1)Oc1ccccc1,inactive: -10.2%
20,ClCCSc1nnc(-c2cccnc2)o1,inactive: -1.9%
21,COc1ccc2nc(NP(=O)(c3ccccc3)c3ccccc3)sc2c1,inactive: -20%
22,Cc1c2c(nc3ccccc13)SC(C(Cl)Cl)C2 (centres undefined),inactive: -2%
23,Cc1cc(=O)[nH]c(N[N+](=O)[O-])n1,inactive: -0.3%
24,O=C(OC1CN2CCC1CC2)C12CC3CC(CC(C3)C1)C2 (centres undefined),inactive: -14.9%
25,COc1ccc(N/C(=N/P(=O)(N2CCOCC2)N2CCOCC2)N2CCOCC2)cc1,inactive: -7%

# From PubChem BioAssay AID1012 (Sanford-Burnham Center for Chemical Genomics, 2008)
